Like-named read-outs stand apart in the source and are kept apart here. Blank lines part the entries; values can stand above or below the molecule they belong to.
System: endothelin A receptor
Details: for IC50: read-out: IC50 on ETAR endocytosis, secondary screen, compound 0.1 to 50 μM; for IC50 / ETAR endocytosis/internalization compared to control: endothelin stimulated

Compound: CN(C)CCCn1cc(C2=C(c3c[nH]c4ccccc34)C(=O)NC2=O)c2ccccc21 [GF 109203X]
effect on agonist dependent ETAR endocytosis (phenotype): blocked

effect on agonist dependent ETAR endocytosis (phenotype) (10 μM compound, 40 nM endothelin-1): no significant effect
Compound: CC1CNCCN1S(=O)(=O)c1cccc2cnccc12 (stereo not shown) [H7]

Compound: O=S(=O)(NCCNC/C=C/c1ccc(Br)cc1)c1cccc2cnccc12 [H-89]
IC50: 10000 nM

Compound: CCCCCCCCCCCCCC(=O)O[C@@H]1[C@@H](C)[C@@]2(O)[C@@H](C=C(CO)C[C@]3(O)C(=O)C(C)=C[C@@H]23)[C@@H]2C(C)(C)[C@]12OC(C)=O [PMA]
ETAR internalization in the absence of stimulation: no internalization
endothelin stimulated ETAR internalization after 24 h phorbol ester and washout: no longer increased
increase of ET-1 induced ETAR endocytosis: > 50%
level of the ETAR at the cell surface: 2.6 fold

ETAR endocytosis/internalization compared to control (10 μM compound): 0.5 fold
Compound: CCCCCCCCCCCCCCCC(=O)OC(CC(=O)O)C[N+](C)(C)C.[Cl-] (stereo not drawn) [Palmitoyl DL carnitine chloride]

ETAR endocytosis/internalization compared to control (10 μM compound): 0.5 fold
IC50: 1000 nM
Compound: Cn1cc(C2=C(c3cn(CCCSC(=N)N)c4ccccc34)C(=O)NC2=O)c2ccccc21 [Ro 31-8220]

Compound: CC[C@H](C)[C@H](NC(=O)[C@H](CC(=O)O)NC(=O)[C@H](CC(C)C)NC(=O)[C@H](Cc1c[nH]cn1)NC(=O)[C@@H]1CSSC[C@H](N)C(=O)N[C@@H](CO)C(=O)N[C@H]2CSSC[C@H](NC(=O)[C@H](CCC(=O)O)NC(=O)[C@H](CCCCN)NC(=O)[C@H](CC(=O)O)NC(=O)[C@H](CCSC)NC(=O)[C@H](CC(C)C)NC(=O)[C@H](CO)NC(=O)[C@H](CO)NC2=O)C(=O)N[C@@H](C(C)C)C(=O)N[C@@H](Cc2ccc(O)cc2)C(=O)N[C@@H](Cc2ccccc2)C(=O)N1)C(=O)N[C@H](C(=O)N[C@@H](Cc1c[nH]c2ccccc12)C(=O)O)[C@@H](C)CC [endothelin-1]
EC50 (read-out: EC50 of endothelin-1 for agonist dependent ETAR activation (internalization)): 3.4 nM

Compound: Cc1cc(O)c2c(=O)c3c(O)cc(O)c4c5c(O)cc(O)c6c(=O)c7c(O)cc(C)c8c1c2c(c34)c(c78)c65 [hypericine]
effect on agonist dependent ETAR endocytosis (phenotype): marginal effect

Compound: CC(=O)c1c(O)c(C)c(O)c(Cc2c(O)c3c(c(C(=O)/C=C/c4ccccc4)c2O)OC(C)(C)C=C3)c1O [rottlerin]
effect on agonist dependent ETAR endocytosis (phenotype): no effect

— US20080138834A1, “Cellular antagonists of GPCR physiology” (Institute Pasteur Korea, priority 2006, published 2008)
